Sequences of proteins named here, by UniProt entry; tags and fusion partners are left off. Residues count along the entry.
UniProt P37023, 22-503: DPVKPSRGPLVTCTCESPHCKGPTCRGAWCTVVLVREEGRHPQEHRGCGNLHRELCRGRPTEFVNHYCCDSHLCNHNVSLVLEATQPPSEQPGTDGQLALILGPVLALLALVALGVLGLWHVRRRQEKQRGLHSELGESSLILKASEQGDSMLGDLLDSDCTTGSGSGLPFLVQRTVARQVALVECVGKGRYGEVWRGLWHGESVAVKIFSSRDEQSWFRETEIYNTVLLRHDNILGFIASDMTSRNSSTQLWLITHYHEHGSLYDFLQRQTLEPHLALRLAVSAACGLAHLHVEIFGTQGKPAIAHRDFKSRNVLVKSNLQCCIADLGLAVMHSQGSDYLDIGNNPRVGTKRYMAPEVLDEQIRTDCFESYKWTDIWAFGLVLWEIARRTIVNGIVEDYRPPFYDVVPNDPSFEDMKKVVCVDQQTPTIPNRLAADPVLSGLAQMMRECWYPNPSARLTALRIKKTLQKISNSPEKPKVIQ

According to article PMC9924264 (Journal of Medicinal Chemistry, 2023):

Tests used:
[1] = biological target: ACVRL1 (ALK1) (Homo sapiens, UniProt P37023); assay: ThermoFisher SelectScreen LanthaScreen assay; format: binding; conditions: for selectivity over BMPR2: ALK1, text; for selectivity: ALK1 vs BMPR2
[2] = Metabolic stability in human liver microsomes; format: in vitro ADME; conditions: compared with analogue (CDD-1115 for CDD-1281, CDD-1431 for CDD-1653)
In short: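 Human liver microsomes (0.5 mg protein/mL) incubated at 37 °C with test compound (2.0 μM) and NADPH cofactor (1.0 mM). Samples taken at 0, 30 and 60 min, in duplicate. […] Half-life was compared with that of the paired structural analogue.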

[3] = biological target: T1, BMPR2 kinase domain (Homo sapiens, UniProt Q13873); assay: BMPR2 Kinase-Glo kinase inhibition assay; format: biochemical; conditions: compared to parent CDD-1431
T1 sequence (Q13873 188-517): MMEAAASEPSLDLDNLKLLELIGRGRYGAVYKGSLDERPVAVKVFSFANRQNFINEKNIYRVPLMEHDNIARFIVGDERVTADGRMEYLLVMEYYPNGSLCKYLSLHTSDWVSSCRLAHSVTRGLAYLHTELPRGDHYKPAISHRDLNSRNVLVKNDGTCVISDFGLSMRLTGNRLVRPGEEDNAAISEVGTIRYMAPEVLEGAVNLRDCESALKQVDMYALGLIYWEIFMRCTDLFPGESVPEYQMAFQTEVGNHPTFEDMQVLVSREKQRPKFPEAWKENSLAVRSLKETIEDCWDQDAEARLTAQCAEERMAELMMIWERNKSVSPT
In short: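 Recombinant human BMPR2 kinase domain (aa188-517, C-terminal His-tag) expressed in E. coli and purified by affinity, anion-exchange and size-exclusion chromatography. Substrate-free ATPase end-point assay: 10 μM ATP, 0.02% Tween-20, kinase buffer, 30 min at 30 °C. Enzyme level optimized for linear initial velocity. Leftover ATP read by luciferase luminescence, with no-kinase controls. Kiapp from modified Morrison equation fit to normalized fractional activity, no inhibition mode assumed.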

[4] = Metabolic stability in mouse liver microsomes; format: in vitro ADME; conditions: compared with analogue (CDD-1115 for CDD-1281, CDD-1431 for CDD-1653)
[5] = biological target: T2, ACVR1 (ALK2) (Homo sapiens, UniProt Q04771); assay: ThermoFisher SelectScreen LanthaScreen assay; format: binding
T2 sequence (Q04771 21-509): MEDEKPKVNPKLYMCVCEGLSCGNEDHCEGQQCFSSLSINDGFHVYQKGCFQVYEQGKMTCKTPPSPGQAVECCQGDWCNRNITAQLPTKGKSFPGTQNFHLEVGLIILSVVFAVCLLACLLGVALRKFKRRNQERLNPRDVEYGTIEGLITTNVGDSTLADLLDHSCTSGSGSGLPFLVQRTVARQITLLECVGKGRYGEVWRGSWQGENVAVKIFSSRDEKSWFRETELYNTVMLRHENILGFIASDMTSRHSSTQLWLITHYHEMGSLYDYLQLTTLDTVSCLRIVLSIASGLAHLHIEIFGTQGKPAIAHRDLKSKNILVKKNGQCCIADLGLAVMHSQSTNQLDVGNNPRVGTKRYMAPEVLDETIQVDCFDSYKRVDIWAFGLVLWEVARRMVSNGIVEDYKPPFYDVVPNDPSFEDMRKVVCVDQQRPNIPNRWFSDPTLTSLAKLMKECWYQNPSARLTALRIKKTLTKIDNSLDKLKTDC

SMILES	selectivity over BMPR2 [1] [fold]	selectivity [1] [×]	fold increase of half-life in HLM [2] [fold]	fold improved BMPR2 potency [3] [fold]	fold increase of half-life in MLM [4] [fold]	selectivity over BMPR2 ([5]; ALK2, text) [fold]	selectivity ([5]; ALK2 vs BMPR2) [×]
COc1cnc(Nc2cccc(S(N)(=O)=O)c2)nc1N1CCN(c2ccccc2)C(=O)C1 [CDD-1653, 3-((5-Methoxy-4-(3-oxo-4-phenylpiperazin-1-yl)pyrimidin-2-yl)amino)benzenesulfonamide]	> 360	>360	13.8	2.9	5.7		
CNC(=O)CCc1ccc(C(=O)NCc2cccc(N3CCN(c4nc(Nc5cccc(S(N)(=O)=O)c5)ncc4OC)CC3)c2)cc1 [CDD-1431, N-(3-(4-(5-Methoxy-2-((3-sulfamoylphenyl)amino)pyrimidin-4-yl)piperazin-1-yl)benzyl)-4-(3-(methylamino)-3-oxopropyl)benzamide]	> 625	>625				> 625	>625
